Assay results reported in PubChem BioAssay AID588519 (ICCB-Longwood Screening Facility, Harvard Medical School, 2011).
The entries are a selection whose mix differs from that of the whole data set. Some results for these compounds are left out of this collection, so the calls shown say nothing about other tests. The source made the active and inactive calls. Rule as the data show it: active = % elongation below about 90%; inactive = the rest, inconclusive results apart.

What follows are compounds tested against Genome polyprotein (Poliovirus type 1 (strain Mahoney)) (UniProt P03300) (assay: inhibitors of poliovirus polymerase RNA elongation – biochemical, fluorescence polarization, total intensity, primary screen (AID 588519)). Conditions: active compounds read low, compound at 16.7 µg/mL.

Row | Compound | % elongation
1 | CCCCOc1ccccc1C(=O)NCC1(N(C)C)CCCCC1 | inactive: 102%
2 | CN(C)c1ccc(C(=O)NCC2(N(C)C)CCCCC2)cc1 | inactive: 101%
3 | CN(C)C1(CNC(=O)c2ccccc2[N+](=O)[O-])CCCCC1 | inactive: 110%
4 | CCOc1cccc(C(=O)NCC2(N(C)C)CCCCC2)c1 | inactive: 107%
5 | COc1ccc(OC)c(C=C(C#N)C#N)c1 | inactive: 97%
6 | O=C(NCC1(N2CCOCC2)CCCCC1)c1cnc(Cl)c(Cl)c1 | inactive: 102%
7 | CN(C)C1(CNC(=O)c2ccccc2F)CCCCC1 | inactive: 110%
8 | CN(C)C1(CNC(=O)c2cccc(Cl)c2)CCCCC1 | inactive: 105%
9 | CC(C)COc1ccc(C(=O)NCC2(N(C)C)CCCCC2)cc1 | inactive: 104%
10 | O=C(OC1CN2CCC1CC2)C(CO)(c1ccccc1)c1ccccc1 (centres undefined) | inactive: 108%
11 | COc1cccc(C(=O)NCC2(N3CCOCC3)CCCCC2)c1 | inactive: 107%
12 | CC(C)Oc1ccc(C(=O)NCC2(N(C)C)CCCCC2)cc1 | inactive: 105%
13 | O=C(NCC1(N2CCCCC2)CCCCC1)c1ccc2c(c1)OCCO2 | inactive: 98%
14 | COc1cc(C(=O)NCC2(N(C)C)CCCCC2)cc(OC)c1OC | inactive: 112%
15 | Cc1cccc(C(=O)NCC2(N(C)C)CCCCC2)c1 | inactive: 107%
16 | CN1C2CCC1CC(OC(=O)C(O)(c1ccccc1)c1ccccc1)C2 (centres undefined) | inactive: 99%
17 | CN(C)C1(CNC(=O)c2ccncc2)CCCCC1 | inactive: 104%
18 | COc1ccc(C(=O)NCC2(N(C)C)CCCCC2)cc1Cl | inactive: 103%
19 | N#CC(C#N)=Cc1ccccc1 | active: 80%
